According to ChEMBL document CHEMBL2424526, “Thrombin inhibitory activity of some polyphenolic compounds” (Med Chem Res, 2013):
The source made the active and inactive calls. No cut-off for these calls is given here.

Assays:
Prothrombin [1] = molecular target: T1, Prothrombin (Homo sapiens, UniProt P00734); assay: Inhibition of human thrombin amidolytic activity using D-Phe-Pip-Arg-pNA as substrate at 0.1 to 1000 uM preincubated for 10 mins followed by substrate addition measured every 12 secs for 10 mins by spectrophotometric analysis
Summary of the method: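 Human plasma thrombin (17.6 nM in 50 mM TBS pH 7.4) preincubated 10 min at 37 °C with compound (from 10 mM stocks in 50% DMSO; final DMSO 5%, final thrombin 15.8 nM), then added to 3 mM D-Phe-Pip-Arg-pNA stock. A415 read every 12 s for 10 min; Vmax per curve; IC50 estimated from inhibition curves.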

Prothrombin [2] = molecular target: T1, Prothrombin; assay: Inhibition of human thrombin assessed as equilibrium association constant at 50 to 1000 uM by BIAcore analysis
Summary of the method: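 Human plasma thrombin amine-coupled to a CM5 sensor chip from 50 mM acetate pH 6.0 (NHS/EDC activation, ethanolamine block). Running buffer PBS pH 7.4 at 25.0 °C. Each cycle at 10 μl/min: 900 s PBS baseline, 600 s polyphenol injection, 200 s PBS dissociation, then 0.1 M NaOH and 0.1 M HCl regeneration. Binding read as resonance units.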

Row | inhibition (Prothrombin [1]) | SMILES | Ka (Prothrombin [2]) [×10⁸ /M]
1 | inactive | Oc1ccc(/C=C/c2cc(O)cc(O)c2)cc1 | 
2 |  | Oc1cc(O)c2cc(O)c(-c3ccc(O)c(O)c3)[o+]c2c1 | 1.28
3 | inactive | COc1cc(/C=C/C(=O)O)ccc1O | 
4 | inactive | O=C(O)/C=C/c1ccc(O)c(O)c1 | 
